Reference: patent US20220322671A1, “METHODS TO REDUCE CONTAMINATION, BIOFILM AND FOULING FROM WATER SYSTEMS, SURFACES, AND PRODUCTS” (Aequor, Inc., priority 2019, published 2022)

Tested on: L. fermentum (ATCC 9338)
Assay: MIC broth microdilution, L. fermentum
Type: cell-based, Lactobacillus fermentum

## CCCCCCCCCCCCOS(=O)(=O)c1ccccc1.[Na]
  Minimum Inhibitory Concentration (MIC) (% v/v) M07-09 Method, L. fermentum: 0.0075 % v/v
